Reference: PubChem BioAssay AID489033 (Sanford-Burnham Center for Chemical Genomics, 2010)
Calls of active or inactive are those of the source. The rule behind the calls is not given here.

system: 697B B-cell line, NF-kB luciferase reporter luminescence; test: NF-kB reporter inhibition in B cells, dose response, selectivity assay for T-cell antigen receptor NF-kB inhibitors, 697B cells, luminescence (AID 489033)

Structure (SMILES)	IC50
Cc1ccnc2c1ccc1cccnc12	19.3 µM
CC[n+]1c(/C=C/N(C)c2ccccc2)oc2ccccc21	inactive: > 80 µM
O=c1c2ccccc2nc(/C=C/c2ccc([N+](=O)[O-])o2)n1-c1ccc(O)cc1	2.8 µM
